Here are results for one molecule from patent publication US20050148069A1, “IGF-1 instructs multipotent adult CNS neural stem cells to an oligodendroglial lineage” (priority 2003, published 2005).

This test relates to adult hippocampus-derived neural progenitor cells. Nature of the test: in vitro differentiation analysis of neural progenitor cells (immunocytochemistry for lineage markers). Type of test: cell-based, rat. The method, then:
The neural progenitor cells isolated from the hippocampus of female Fischer 344 used in this study have been characterized previously (Gage et al., 1995; Palmer et al., 1997). The whole brain-derived neural stem cells from PIO ICR mice were isolated and cultured according to the methods as described, with slight modifications. Cells were cultured as previously described (Gage et al., 1995; Ray et al., 1993). Cells between passages 10 and 20 were used for in vitro differentiation analyses. To induce differentiation, cells were plated into 4-well chamber slides at a density of 55,000-75,000 cells per well and were allowed to proliferate in N2-supplemented (Invitrogen) DMEM:F12 (Omega Scientific) medium containing 20 ng/ml FGF-2 (PeproTech, Inc.) for 24 hours. FGF-2 was then withdrawn and cells were subsequently treated with differentiation media. Differentiation conditions were either N2 medium with 1 μM RA (Sigma) and 1% FBS (Omega Scientific) for 4 days (mixed); 1 μM RA and 5 μM FSK (Sigma) for 4 days (neuronal), or 50 ng/ml LIF (Chemicon International Inc.) and 50 ng/ml BMP2 (R&D Systems) for 6 days (astrocytic) (Nakashima et al., 1999). For IGF-induction experiments, cells were trypsinized, washed with 1× PBS, and plated into insulin-free N2 medium. Either human recombinant IGF-I or IGF-II (500 ng/ml; R&D Systems) or insulin (500 ng/ml; Sigma) was added for 4 days, except when indicated otherwise. […]
Cells were fixed with 4% paraformaldehyde, followed by immunocytochemical staining as described (Palmer et al., 1999). […] Quantification of cell phenotypes was with StereoInvestigator (MicroBrightfield Inc.); for each marker, 500-1000 cells were sampled systematically from standardized fields at 40×magnification. For quantification of live/dead cells, images were taken of cultures live-stained with propidum iodide (1 μg/ml; Molecular Probes) and Hoescht 33342 (1 μg/ml; Sigma) at 10×magnification, and cells were counted using Image-Pro (Media Cybernetics). […]

B1: BMP2: bone morphogenetic protein-2 (R&D Systems) (protein, UniProt P12643 283-396, looked up)
Bone morphogenetic protein 2: QAKHKQRKRLKSSCKRHPLYVDFSDVGWNDWIVAPPGYHAFYCHGECPFPLADHLNSTNHAIVQTLVNSVNSKIPKACCVPTELSAISMLYLDENEKVVLKNYQDMVVEGCGCR
In the case of B1, the “oligodendrocyte differentiation at lower BMP2 concentrations” value (BMP2 0.05-0.5 ng/ml with 500 ng/ml IGF-I) is recorded as “partial differentiation could still be observed”. For the same molecule, the “oligodendrocyte differentiation at higher BMP2 concentrations” value (BMP2 5-50 ng/ml with 500 ng/ml IGF-I) is on record as “greater suppression of oligodendrocyte differentiation”. Further, the “oligodendrocyte differentiation (RIP+ cells) vs IGF-I alone” value (added in the presence of 500 ng/ml IGF-I, 4-day cultures) is given as “suppression of oligodendrocyte differentiation”.
